Apparent affinities of Ab-91 variants for a coronavirus HR2 peptide

From the AlphaSeq antibody data of Engelhart et al. 2022 (doi:10.1038/s41597-022-01779-4), copy in the FLAb collection.

Target: peptide PDVDLGDISGINAS, taken from heptad repeat 2 (HR2) of SARS-CoV-2 spike.

Each scFv is VL, a (GGGGS)3 linker, VH, as in the parent Ab-91, and differs from it in the CDRs of the heavy chain only.
VL: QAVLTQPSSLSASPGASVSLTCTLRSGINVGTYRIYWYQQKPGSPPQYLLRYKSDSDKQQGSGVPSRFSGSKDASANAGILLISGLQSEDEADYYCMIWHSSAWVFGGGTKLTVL
VH: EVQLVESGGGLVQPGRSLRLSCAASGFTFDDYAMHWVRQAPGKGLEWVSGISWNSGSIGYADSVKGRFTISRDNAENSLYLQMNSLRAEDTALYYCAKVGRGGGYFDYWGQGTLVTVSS

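Variants in AAYL51 differ from the parent at up to three CDR positions; double and triple changes were sampled at random. The assay is AlphaSeq: two haploid yeast populations carry antibody and antigen on their surface. The frequency of each diploid, read from paired DNA barcodes, reflects how well the two displayed proteins bind. Each replicate has its own calibration line, from reference interactions of the BCL2 family. The assay was run in three technical replicates.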

Each variant's VH is given in full. This list gathers variants with a substitution at R101 (VH, numbered from residue 1). The Kd shown is the geometric mean over detected replicates; a lower Kd is a better binder. A pair that was not seen in any replicate is written "nd"; this usually means weak binding, but a binder can also be missed. Order: sorted from the lowest average up, undetected variants last.

The variant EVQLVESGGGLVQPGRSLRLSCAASGFTFDDYAMHWVRQAPGKGLEWVSGISMNSGSIGYADSVKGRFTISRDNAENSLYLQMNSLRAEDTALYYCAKVGHGGGYFDYWGQGTLVTVSS showed 1.4 nM (3 of 3 replicates; controls 2 of 9). For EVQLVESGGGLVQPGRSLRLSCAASGFTFDDYAMHWVRQAPGKGLEWVSGISWNSGSIGYADSVKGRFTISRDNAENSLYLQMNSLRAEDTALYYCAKVQKIGGYFDYWGQGTLVTVSS, the assay gave 85 nM (3 of 3 replicates; controls 2 of 9). With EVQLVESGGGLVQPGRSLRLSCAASGFTFWDYAMHWVRQAPGKGLEWVSGISWNSGSIGYADSVKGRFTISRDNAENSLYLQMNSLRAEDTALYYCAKVGIGGGYFDYWGQGTLVTVSS the result was 420 nM (3 of 3 replicates; controls 2 of 9). For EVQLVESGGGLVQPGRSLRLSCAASGFTFDDYAMHWVRQAPGKGLEWVSGIWWNSGSIGYADSVKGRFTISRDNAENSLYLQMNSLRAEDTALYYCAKVLAGGGYFDYWGQGTLVTVSS, the assay gave 6.5 µM (1 of 3 replicates; controls 3 of 9). For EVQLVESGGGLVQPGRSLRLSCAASVFTFDDYAMHWVRQAPGKGLEWVSGISWNSGSIGYADSVKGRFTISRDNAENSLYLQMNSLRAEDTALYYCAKVKNGGGYFDYWGQGTLVTVSS, the assay gave 16 µM (1 of 3 replicates; controls 4 of 9). For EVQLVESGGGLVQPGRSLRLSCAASGFTFDDYAMHWVRQAPGKGLEWVSGISWNSGSIGYADSVKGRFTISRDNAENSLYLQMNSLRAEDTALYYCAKSGYGGGYADYWGQGTLVTVSS, the assay gave 36 µM (1 of 3 replicates; controls 2 of 9). For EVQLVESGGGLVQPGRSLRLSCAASGFTFDDYAMHWVRQAPGKGLEWVSGISWNSGSWGYADSDKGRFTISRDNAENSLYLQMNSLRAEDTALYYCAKVGFGGGYFDYWGQGTLVTVSS, the assay gave 41 µM (2 of 3 replicates; controls 5 of 9). The variant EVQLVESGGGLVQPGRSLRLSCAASGFTFDDYAMDWVRQAPGKGLEWVSGISWNSGSIGYATSVKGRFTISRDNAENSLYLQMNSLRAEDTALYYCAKVGEGGGYFDYWGQGTLVTVSS showed 59 µM (1 of 3 replicates; controls 4 of 9).

For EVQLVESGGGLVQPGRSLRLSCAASGFTKDDYAMHWVRQAPGKGLEWVSGISWNSGSIGYADSVKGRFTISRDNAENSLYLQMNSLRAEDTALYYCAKVGVGGGYFDSWGQGTLVTVSS, the assay gave 91 µM (2 of 3 replicates; controls 3 of 9). With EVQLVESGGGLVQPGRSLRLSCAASGFTFDDYAMQWVRQAPGKGLEWVSGISWNSGSINYADSVKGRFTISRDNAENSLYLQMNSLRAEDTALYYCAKVGHGGGYFDYWGQGTLVTVSS the result was 220 µM (2 of 3 replicates; controls 6 of 9). For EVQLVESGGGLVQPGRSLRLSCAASGFTKDDYAMHWVRQAPGKGLEWVSGISWNSGSWGYADSVKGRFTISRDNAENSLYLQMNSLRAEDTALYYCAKVGDGGGYFDYWGQGTLVTVSS, the assay gave 480 µM (2 of 3 replicates; controls 4 of 9). With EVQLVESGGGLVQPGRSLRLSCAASGFTFDRYAMHWVRQAPGKGLEWVSGISWNSGSIGYADSVKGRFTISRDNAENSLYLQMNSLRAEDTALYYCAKVGNGGGYFYYWGQGTLVTVSS the result was 1.2 mM (1 of 3 replicates; controls 2 of 9). For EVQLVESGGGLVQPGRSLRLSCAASGFTFDDYAMHWVRQAPGKGLEWVSGISWNKGSIGYADSVKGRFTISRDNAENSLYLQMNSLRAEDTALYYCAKVGGGGGYFDYWGQGTLVTVSS, the assay gave 1.4 mM (1 of 3 replicates; controls 3 of 9). The variant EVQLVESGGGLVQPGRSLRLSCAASGFTFDDYAMHWVRQAPGKGLEWVSGISWNSGSIGYADSVKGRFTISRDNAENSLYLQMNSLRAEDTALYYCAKVTWGGGYFDYWGQGTLVTVSS gave nd (0 of 3 replicates; controls 2 of 9). For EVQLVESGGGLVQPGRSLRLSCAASGITFDDYAMHWVRQAPGKGLEWVSGISWNSGSIGYADSVKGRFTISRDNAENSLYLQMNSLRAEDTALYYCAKVGVGGGYFDYWGQGTLVTVSS, the assay gave nd (0 of 3 replicates; controls 0 of 9). The variant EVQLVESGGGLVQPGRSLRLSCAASGFTFDDYAMHWVRQAPGKGLEWVSGISGSSGSIGYADSVKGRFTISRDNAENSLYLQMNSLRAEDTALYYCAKVGEGGGYFDYWGQGTLVTVSS showed nd (0 of 3 replicates; controls 0 of 9).

With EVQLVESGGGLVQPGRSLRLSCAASGFTFDDYAMHWVRQAPGKGLEWVSGISWNRGSIGAADSVKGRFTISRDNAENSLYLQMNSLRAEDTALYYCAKVGSGGGYFDYWGQGTLVTVSS the result was nd (0 of 3 replicates; controls 0 of 9). The variant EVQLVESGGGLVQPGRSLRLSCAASGFTFDDYAMHWVRQAPGKGLEWVSGISWNSGKIGYADSVKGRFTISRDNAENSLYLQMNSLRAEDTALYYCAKVGTGGGYWDYWGQGTLVTVSS showed nd (0 of 3 replicates; controls 0 of 9). With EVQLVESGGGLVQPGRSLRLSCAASGFTFDDYAMHWVRQAPGKGLEWVSGISWSSGNIGYADSVKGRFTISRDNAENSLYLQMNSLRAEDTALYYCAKVGHGGGYFDYWGQGTLVTVSS the result was nd (0 of 3 replicates; controls 1 of 9). For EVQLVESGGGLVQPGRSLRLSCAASGFTFDLYAMFWVRQAPGKGLEWVSGISWNSGSIGYADSVKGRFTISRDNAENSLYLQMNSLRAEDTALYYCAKVGEGGGYFDYWGQGTLVTVSS, the assay gave nd (0 of 3 replicates; controls 1 of 9). For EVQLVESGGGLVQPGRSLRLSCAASGFTMDDYAMHWVRQAPGKGLEWVSGISWNSGSIGHADSVKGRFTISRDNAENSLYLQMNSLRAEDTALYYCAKVGNGGGYFDYWGQGTLVTVSS, the assay gave nd (0 of 3 replicates; controls 1 of 9).

Repeated from above, the 2 best binders with a signal in all replicates:

{"VH": "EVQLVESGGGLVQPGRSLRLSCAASGFTFDDYAMHWVRQAPGKGLEWVSGISMNSGSIGYADSVKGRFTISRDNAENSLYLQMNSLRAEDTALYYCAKVGHGGGYFDYWGQGTLVTVSS", "Kd": "1.4 nM", "detected": "3/3", "signal with controls": "2/9"}
{"VH": "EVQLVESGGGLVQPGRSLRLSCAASGFTFDDYAMHWVRQAPGKGLEWVSGISWNSGSIGYADSVKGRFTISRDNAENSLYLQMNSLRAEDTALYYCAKVQKIGGYFDYWGQGTLVTVSS", "Kd": "85 nM", "detected": "3/3", "signal with controls": "2/9"}

Parent in this assay: reference entry 72 nM, copy in this library 7.5 nM. As a blank, each scFv also met three strains without target: over library AAYL51, 21% of these pairings were detected, typically at 34 µM and seldom below 1.8 µM. Also given: how often the same scFv was detected with the empty control strains.